Permeability data for macrocyclic peptides

Source: CycPeptMPDB (Li et al. 2023), which took these values from Townsend et al. 2020, doi:10.26434/chemrxiv.13335941.v1.

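The data file gives no further conditions (lipid, pH, time, direction or concentration), and values from different papers need not be comparable. Other peptides of the study may be missing here. Peptides that the database sets to -10, its floor, are left out.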

PAMPA measures passive passage through an artificial lipid membrane.
Permeability is in 10^-6 cm/s, converted from the database's log10 values; higher is more permeable.

For CCCN1CC(=O)N(C)[C@@H](CC(C)C)C(=O)N[C@@H](CC(C)C)C(=O)N2CCC[C@H]2C(=O)N[C@H](CC(C)C)C(=O)N[C@@H](Cc2ccccc2)C(=O)N2CCC[C@H]2C1=O the data give PAMPA 2.4 × 10^-6 cm/s.
For CCCN1CC(=O)N[C@@H](CC(C)C)C(=O)N[C@H](CC(C)C)C(=O)N2CCC[C@@H]2C(=O)N(C)[C@@H](CC(C)C)C(=O)N[C@@H](Cc2ccccc2)C(=O)N2CCC[C@H]2C1=O the data give PAMPA 6.2 × 10^-6 cm/s.
For CCCN1CC(=O)N[C@@H](CC(C)C)C(=O)N(C)[C@@H](CC(C)C)C(=O)N2CCC[C@@H]2C(=O)N[C@@H](CC(C)C)C(=O)N[C@@H](Cc2ccccc2)C(=O)N2CCC[C@@H]2C1=O the data give PAMPA 4.8 × 10^-6 cm/s.
For CC(C)C[C@@H]1NC(=O)[C@@H](C)NC(=O)[C@H](Cc2ccccc2)NC(=O)[C@@H](CC(C)C)NC(=O)[C@@H]2CCCN2C(=O)[C@@H](CC(C)C)NC1=O the data give PAMPA 0.6 × 10^-6 cm/s.
For CC(C)C[C@@H]1C(=O)N[C@@H](Cc2ccccc2)C(=O)N(C)[C@@H](C)C(=O)N[C@H](CC(C)C)C(=O)N(Cc2ccccc2)CC(=O)N2CCC[C@H]2C(=O)N1C the data give PAMPA 6.8 × 10^-6 cm/s.
For CC(C)C[C@@H]1NC(=O)[C@@H](CC(C)C)N(C)C(=O)[C@H](C)N(C)C(=O)[C@H]2CCCN2C(=O)[C@H](Cc2ccccc2)NC(=O)[C@@H](CC(C)C)N(C)C(=O)[C@H]2CCCN2C1=O the data give PAMPA 9.1 × 10^-6 cm/s.
For CC(C)C[C@@H]1C(=O)N2CCC[C@H]2C(=O)N(C)[C@H](CC(C)C)C(=O)N[C@@H](Cc2ccccc2)C(=O)N[C@H](C)C(=O)N(C)[C@H](CC(C)C)C(=O)N1C the data give PAMPA 6.3 × 10^-6 cm/s.
For CC(C)C[C@H]1NC(=O)[C@@H](C)N(C)C(=O)[C@@H]2CCCN2C(=O)[C@H](Cc2ccccc2)NC(=O)CN(Cc2ccccc2)C(=O)[C@H]2CCCN2C(=O)C[C@H](Cc2ccccc2)NC1=O the data give PAMPA 0.35 × 10^-6 cm/s.
For CC(C)C[C@@H]1C(=O)N[C@@H](Cc2ccccc2)C(=O)N2CCC[C@H]2C(=O)N(C)[C@H](C)C(=O)N(C)[C@@H](CC(C)C)C(=O)N(Cc2ccccc2)CC(=O)N2CCC[C@H]2C(=O)N1C the data give PAMPA 2.3 × 10^-6 cm/s.
For CC(C)C[C@@H]1NC(=O)[C@H]2CCCN2C(=O)[C@@H](CC(C)C)NC(=O)[C@H](CC(C)C)N(C)C(=O)[C@H](C)NC(=O)[C@H](Cc2ccccc2)NC1=O the data give PAMPA 0.62 × 10^-6 cm/s.
For CC(C)C[C@H]1C(=O)N(Cc2ccccc2)CC(=O)N2CCC[C@H]2C(=O)N(Cc2ccccc2)CC(=O)N[C@@H](Cc2ccccc2)C(=O)N(C)[C@H](C)C(=O)N1C the data give PAMPA 5 × 10^-6 cm/s.
For CC(C)C[C@@H]1NC(=O)[C@@H]2CCCN2C(=O)[C@H](CC(C)C)NC(=O)[C@H](CC(C)C)N(C)C(=O)[C@@H](C)N(C)C(=O)[C@H]2CCCN2C(=O)[C@H](Cc2ccccc2)NC1=O the data give PAMPA 0.19 × 10^-6 cm/s.
For CC(C)C[C@@H]1NC(=O)[C@@H](CC(C)C)N(C)C(=O)C[C@H](Cc2ccccc2)NC(=O)[C@H](Cc2ccccc2)NC(=O)[C@@H](CC(C)C)N(C)C(=O)[C@@H]2CCCN2C1=O the data give PAMPA 5.8 × 10^-6 cm/s.
For CC(C)C[C@@H]1C(=O)N[C@@H](Cc2ccccc2)C(=O)N[C@@H](Cc2ccccc2)CC(=O)N[C@H](CC(C)C)C(=O)N[C@@H](Cc2ccccc2)CC(=O)N2CCC[C@H]2C(=O)N1C the data give PAMPA 1.3 × 10^-6 cm/s.
For CC(C)C[C@@H]1NC(=O)[C@@H]2CCCN2C(=O)[C@@H](CC(C)C)NC(=O)[C@@H](CC(C)C)N(C)C(=O)[C@H](C)NC(=O)[C@H](Cc2ccccc2)NC1=O the data give PAMPA 2.4 × 10^-6 cm/s.
For CC(C)C[C@@H]1NC(=O)[C@H]2CCCN2C(=O)CN(Cc2ccccc2)C(=O)[C@@H](CC(C)C)N(C)C(=O)[C@@H](C)N(C)C(=O)[C@@H]2CCCN2C(=O)[C@H](Cc2ccccc2)NC1=O the data give PAMPA 0.14 × 10^-6 cm/s.
For CC(C)C[C@@H]1C(=O)N(Cc2ccccc2)CC(=O)N2CCC[C@H]2C(=O)N[C@H](CC(C)C)C(=O)N[C@@H](Cc2ccccc2)C(=O)N2CCC[C@@H]2C(=O)N[C@H](C)C(=O)N1C the data give PAMPA 3.2 × 10^-6 cm/s.

Again, the 2 entries with the lowest PAMPA:

{"smiles": "CC(C)C[C@@H]1NC(=O)[C@H]2CCCN2C(=O)CN(Cc2ccccc2)C(=O)[C@@H](CC(C)C)N(C)C(=O)[C@@H](C)N(C)C(=O)[C@@H]2CCCN2C(=O)[C@H](Cc2ccccc2)NC1=O", "PAMPA (10^-6 cm/s)": "0.14"}
{"smiles": "CC(C)C[C@@H]1NC(=O)[C@@H]2CCCN2C(=O)[C@H](CC(C)C)NC(=O)[C@H](CC(C)C)N(C)C(=O)[C@@H](C)N(C)C(=O)[C@H]2CCCN2C(=O)[C@H](Cc2ccccc2)NC1=O", "PAMPA (10^-6 cm/s)": "0.19"}